This data set can be described thus: in vivo. To be noted: mouse, ip.

For the molecule `O=C1NC(=O)C(c2ccccc2)(c2ccccc2)N1` [diphenylhydantoin, reference compound], the LD50 (as a rule, the dose at which mortality reaches 50%) was found to be 200 mg/kg.

(Values after patent US4004029A, “Compositions and method for treating epilepsy and convulsions” (The Upjohn Company, priority 1975, dated 1977).)
